Measured values taken from PubChem BioAssay AID1259344 (Tox21, 2017).
The entries are a selection whose mix differs from that of the whole data set. Some tests of the compounds listed are not included; inactive here does not mean inactive elsewhere. Results filed as inconclusive are left out. Activity calls are given as the source filed them. The call rests on the fitted dose curve; in most records, active means well fitted activation curve with a large enough effect; inconclusive means small, poorly fitted or top-dose-only effect; inactive means flat fitted curve, though single readings scatter.

Experiment: qHTS assay to identify small molecule phospholipidosis (PLD) inducers
Details: HepG2 phospholipidosis, LipidTOX Red imaging, 24 h; at 38.3 µM (top of the series)
Description: National Center for Advancing Translational Sciences [NCATS]
Drug-induced Phospholipidosis (PLD) caused by cationic amphiphilic drugs is characterized by the appearance of unicentric or multicentric-lamellar bodies when viewed under electron microscope. Electron microscopy is the gold standard method for PLD detection, however, this method is time-consuming and labor intensive, making it unsuitable for evaluating a large set of compounds. A cell-based phospholipidosis assay has been developed using the LipidTox reagent in HepG2 cells and miniaturized into a 1536-well plate format. Drug induced phospholipid accumulation is stained with the LipidTox dyes in red color which then is determined using an automated high content screening system. […]
For fixations, 4 uL of 8% paraformaldehyde fixative solution containing 10 ug/mL Hoechst 33342 in Dulbecco's phosphate-buffered saline (DPBS) is added using a Kalypsys washer/dispenser (Kalypsys, San Diego, CA, USA). […] The fluorescence intensities (595 nm excitation, 615 nm emission for LipidTOX; 352 nm excitation, 461 nm emission for Hoechst 33342) are measured using an ImageXpress Micro Widefield High Content Screening System (Molecular Devices, Sunnyvale, CA, USA) with a 20x Plan Fluor objective. Images are acquired for one site in each well and analyzed with the MetaXpress software (Molecular Devices) using the Transfluor module. […]
On the % scale 0 is the no-effect control and ±100 the full control effect.

Row | Structure (SMILES) | PLD induction
1 | CN1CCCC(OC(=O)C(O)(c2ccccc2)c2ccccc2)C1 (stereo unspecified) | inactive: 3.12%
